We go through three molecules from patent publication US20040106635A1, “Spiroisoquinoline compound, a method for preparing the same and an intermediate thereof” (priority 2001, published 2004).

The chains behind the UniProt entries cited, without tags or fusion partners. Residues count along the entry.
UniProt P22303, 32-614 limits assumed: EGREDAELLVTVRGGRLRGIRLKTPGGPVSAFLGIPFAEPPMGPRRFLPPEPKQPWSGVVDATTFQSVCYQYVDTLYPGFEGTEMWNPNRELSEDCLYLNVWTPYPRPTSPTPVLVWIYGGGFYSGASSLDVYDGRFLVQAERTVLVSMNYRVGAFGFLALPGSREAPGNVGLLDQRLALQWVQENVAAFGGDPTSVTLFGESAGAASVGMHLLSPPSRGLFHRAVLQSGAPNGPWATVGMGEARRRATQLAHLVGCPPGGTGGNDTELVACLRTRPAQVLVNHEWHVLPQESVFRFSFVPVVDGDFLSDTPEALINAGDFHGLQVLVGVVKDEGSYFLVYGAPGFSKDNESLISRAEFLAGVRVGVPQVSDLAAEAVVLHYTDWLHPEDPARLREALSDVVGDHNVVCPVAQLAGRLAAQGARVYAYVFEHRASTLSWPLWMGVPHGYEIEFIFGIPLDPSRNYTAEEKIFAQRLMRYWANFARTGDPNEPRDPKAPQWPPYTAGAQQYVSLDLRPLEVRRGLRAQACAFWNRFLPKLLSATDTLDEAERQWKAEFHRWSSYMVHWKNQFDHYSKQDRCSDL

For this test, the target named is acetylcholinesterase (AChE) (Homo sapiens, UniProt P22303). The test can be described thus: Inhibitory activity on acetylcholinesterase (AChE), Ellman method. To be noted: read-out: Acetylcholinesterase inhibitory activity (IC50; μM); 25° C., pH 7.4, in the presence of 1% BSA, absorbance at 412 nm; tested form: fumarate. On the technique in general: DTNB colorimetry detects thiols as they appear.

As to `CCN1CCc2cc(OC)c(OC)cc2[C@@H]1[C@H]1C[C@H](C(=O)N2CCN(c3ncnc4c3cnn4Cc3ccccc3[N+](=O)[O-])CC2)CC[C@]12c1cc(OC)c(OC)cc1CCN2C(=O)CCNC` (relative stereo), the concentration for half-maximal inhibition (IC50) was found to be 0.3 nM.
For `COc1cc2c(cc1OC)[C@]1(CC[C@@H](C(=O)N3CCN(c4ncnc5c4cnn5Cc4ccccc4[N+](=O)[O-])CC3)CC1)N(C(=O)CCN(C)C)CC2` (relative stereo) the value was 60 nM.
For `CCN1CCc2cc(OC)c(OC)cc2[C@@H]1[C@H]1C[C@H](C(=O)N2CCN(c3ncnc4c3nnn4Cc3ccccn3)CC2)CC[C@]12c1cc(OC)c(OC)cc1CCN2C(=O)CCNC` (relative stereo) the value was 0.08 nM.

For orientation: IC50 means the concentration that gives 50% inhibition.
